Molecular target: T1, dTRPA1 (Drosophila melanogaster, UniProt Q7Z020)
T1 sequence (Q7Z020 1-1197): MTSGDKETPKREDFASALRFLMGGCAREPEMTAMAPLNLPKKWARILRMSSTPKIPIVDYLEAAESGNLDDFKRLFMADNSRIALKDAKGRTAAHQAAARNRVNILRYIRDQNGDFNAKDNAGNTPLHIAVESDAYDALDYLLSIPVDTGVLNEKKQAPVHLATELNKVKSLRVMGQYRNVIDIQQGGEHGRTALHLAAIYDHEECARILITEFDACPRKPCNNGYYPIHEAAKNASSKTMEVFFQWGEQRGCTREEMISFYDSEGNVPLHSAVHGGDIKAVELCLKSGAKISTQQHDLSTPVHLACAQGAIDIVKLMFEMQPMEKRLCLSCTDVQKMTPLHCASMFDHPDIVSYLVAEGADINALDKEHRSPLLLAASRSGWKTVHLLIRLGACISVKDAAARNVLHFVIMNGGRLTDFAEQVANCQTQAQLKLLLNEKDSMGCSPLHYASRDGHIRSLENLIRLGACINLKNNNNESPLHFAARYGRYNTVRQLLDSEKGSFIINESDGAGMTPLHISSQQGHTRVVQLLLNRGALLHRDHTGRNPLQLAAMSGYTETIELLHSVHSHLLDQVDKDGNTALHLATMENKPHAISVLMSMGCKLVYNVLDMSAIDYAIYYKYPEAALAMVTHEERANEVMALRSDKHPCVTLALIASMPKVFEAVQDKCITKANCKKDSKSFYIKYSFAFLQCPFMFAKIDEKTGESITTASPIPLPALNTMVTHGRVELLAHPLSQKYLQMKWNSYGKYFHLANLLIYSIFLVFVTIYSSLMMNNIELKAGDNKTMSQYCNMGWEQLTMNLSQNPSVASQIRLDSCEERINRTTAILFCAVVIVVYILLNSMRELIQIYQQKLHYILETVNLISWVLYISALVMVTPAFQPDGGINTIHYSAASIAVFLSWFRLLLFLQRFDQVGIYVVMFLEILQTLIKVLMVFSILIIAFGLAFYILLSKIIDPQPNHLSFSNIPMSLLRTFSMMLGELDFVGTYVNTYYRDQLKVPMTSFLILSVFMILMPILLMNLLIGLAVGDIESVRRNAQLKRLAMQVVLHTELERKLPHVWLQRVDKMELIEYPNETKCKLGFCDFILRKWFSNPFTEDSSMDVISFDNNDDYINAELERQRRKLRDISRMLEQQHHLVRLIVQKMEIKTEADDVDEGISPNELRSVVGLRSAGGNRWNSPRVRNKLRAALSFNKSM
Experiment: Two-electrode voltage clamping on Xenopus laevis oocytes expressing dTRPA1
Assay type: cell-based

With 2-aminoethoxydiphenyl borate [2-APB] the “Activation of dTRPA1” value was “did not activate” and the “Response of dTRPA1 expressing oocytes” value was “did not respond”.

Source: patent US9986740B2, “Methods of identifying insect-TRPA1 modulators” (BRANDEIS UNIVERSITY, priority 2010, dated 2018)
